Measured values published in ChEMBL document CHEMBL2040723, “1,4-dioxane, a suitable scaffold for the development of novel M₃ muscarinic receptor antagonists” (J Med Chem, 2012).

Amino acid sequences for entries named in this document (tags omitted). A change or cut given only in a name is not applied to a line headed by its entry.
UniProt P11229: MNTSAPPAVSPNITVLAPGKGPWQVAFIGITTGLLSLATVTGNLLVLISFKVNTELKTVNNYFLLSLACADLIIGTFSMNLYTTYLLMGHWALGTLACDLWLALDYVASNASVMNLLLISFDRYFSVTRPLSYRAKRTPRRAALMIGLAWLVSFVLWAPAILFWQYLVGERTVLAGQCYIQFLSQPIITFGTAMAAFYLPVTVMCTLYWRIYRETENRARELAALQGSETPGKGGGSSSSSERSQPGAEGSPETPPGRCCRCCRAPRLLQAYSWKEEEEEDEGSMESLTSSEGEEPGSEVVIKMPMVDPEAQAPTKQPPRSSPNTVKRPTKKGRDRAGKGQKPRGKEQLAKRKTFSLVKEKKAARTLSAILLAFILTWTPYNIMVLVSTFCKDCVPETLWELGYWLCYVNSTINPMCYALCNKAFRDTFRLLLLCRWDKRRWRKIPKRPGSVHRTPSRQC
UniProt P20309, whole entry: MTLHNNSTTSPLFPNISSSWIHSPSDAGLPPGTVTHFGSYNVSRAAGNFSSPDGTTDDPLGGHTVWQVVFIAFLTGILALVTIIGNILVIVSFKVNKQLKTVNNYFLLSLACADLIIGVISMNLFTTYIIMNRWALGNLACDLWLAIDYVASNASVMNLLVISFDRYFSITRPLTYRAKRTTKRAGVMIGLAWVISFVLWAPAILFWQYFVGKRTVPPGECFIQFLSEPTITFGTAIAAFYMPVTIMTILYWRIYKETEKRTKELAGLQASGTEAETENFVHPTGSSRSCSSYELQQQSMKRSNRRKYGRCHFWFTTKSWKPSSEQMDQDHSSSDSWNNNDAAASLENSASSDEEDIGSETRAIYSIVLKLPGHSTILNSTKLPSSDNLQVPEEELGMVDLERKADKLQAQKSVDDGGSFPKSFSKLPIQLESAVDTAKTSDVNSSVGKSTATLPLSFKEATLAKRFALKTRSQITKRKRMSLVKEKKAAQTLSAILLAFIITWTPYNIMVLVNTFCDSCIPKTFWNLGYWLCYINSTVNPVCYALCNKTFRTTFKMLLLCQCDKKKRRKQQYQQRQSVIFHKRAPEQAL
UniProt P08912, whole entry: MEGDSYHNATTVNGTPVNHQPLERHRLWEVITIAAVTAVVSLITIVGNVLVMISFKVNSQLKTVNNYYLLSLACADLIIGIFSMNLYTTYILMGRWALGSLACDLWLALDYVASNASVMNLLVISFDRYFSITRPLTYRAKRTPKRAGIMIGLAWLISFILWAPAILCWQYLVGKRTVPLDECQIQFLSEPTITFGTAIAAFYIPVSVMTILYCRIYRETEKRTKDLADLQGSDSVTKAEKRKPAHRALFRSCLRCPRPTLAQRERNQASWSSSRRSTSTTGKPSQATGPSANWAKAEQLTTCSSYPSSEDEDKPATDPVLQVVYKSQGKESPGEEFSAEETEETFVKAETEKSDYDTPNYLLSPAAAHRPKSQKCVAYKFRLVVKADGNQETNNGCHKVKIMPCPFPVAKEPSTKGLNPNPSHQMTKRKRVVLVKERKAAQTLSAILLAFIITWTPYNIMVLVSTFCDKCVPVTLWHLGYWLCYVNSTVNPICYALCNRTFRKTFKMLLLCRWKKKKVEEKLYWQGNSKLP
UniProt P08172, whole entry: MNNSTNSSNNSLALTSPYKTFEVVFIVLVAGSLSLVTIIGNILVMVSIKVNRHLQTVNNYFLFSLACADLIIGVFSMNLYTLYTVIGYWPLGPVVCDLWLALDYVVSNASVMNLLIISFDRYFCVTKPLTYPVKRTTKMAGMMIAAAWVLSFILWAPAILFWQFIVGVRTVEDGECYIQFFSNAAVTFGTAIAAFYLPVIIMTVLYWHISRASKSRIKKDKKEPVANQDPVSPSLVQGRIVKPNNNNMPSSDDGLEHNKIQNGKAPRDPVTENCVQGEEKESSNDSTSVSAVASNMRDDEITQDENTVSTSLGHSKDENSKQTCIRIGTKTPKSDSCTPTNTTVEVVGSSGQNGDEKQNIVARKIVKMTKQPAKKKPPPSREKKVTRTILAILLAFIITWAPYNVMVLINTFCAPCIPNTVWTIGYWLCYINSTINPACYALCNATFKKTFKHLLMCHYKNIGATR
UniProt P08173, whole entry: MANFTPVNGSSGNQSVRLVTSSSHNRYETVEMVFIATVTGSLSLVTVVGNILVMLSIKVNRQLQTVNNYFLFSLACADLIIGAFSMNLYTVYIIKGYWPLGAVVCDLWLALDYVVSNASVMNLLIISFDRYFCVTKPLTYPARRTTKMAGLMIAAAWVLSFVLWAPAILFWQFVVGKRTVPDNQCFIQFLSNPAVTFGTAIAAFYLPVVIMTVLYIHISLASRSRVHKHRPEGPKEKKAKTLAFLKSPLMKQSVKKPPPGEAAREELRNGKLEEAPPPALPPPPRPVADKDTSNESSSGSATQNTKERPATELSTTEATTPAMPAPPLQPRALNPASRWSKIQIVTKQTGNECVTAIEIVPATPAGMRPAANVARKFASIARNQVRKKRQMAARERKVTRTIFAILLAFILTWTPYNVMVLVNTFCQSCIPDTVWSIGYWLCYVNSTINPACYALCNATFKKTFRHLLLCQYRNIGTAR

Assays:
[1] = molecular target: Muscarinic acetylcholine receptor M1 (Homo sapiens, UniProt P11229); test: biochemical; format: cell-based, CHO
[2] = molecular target: Muscarinic acetylcholine receptor M3 (Homo sapiens, UniProt P20309); test: biochemical; format: cell-based, CHO
[3] = Antagonist activity at muscarinic M3 receptor in guinea pig ileum assessed as dissociation constant after 45 mins; format: functional, Cavia porcellus
In short: (§1)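 Isolated guinea pig tissues: left atrium (M2), ileum (M3) and lung strips (putative M4). Antagonist dissociation constants were calculated by the Furchgott method and reported as pKB, as mean ± SEM of four to six independent experiments. Agonist reference for the tissue responses was bethanechol.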

[4] = molecular target: Muscarinic acetylcholine receptor M5 (Homo sapiens, UniProt P08912); test: Displacement of [3H]N-methylscopolamine from human muscarinic M5 receptor expressed in CHO cells after 120 mins by scintillation counting; format: cell-based
[5] = molecular target: Muscarinic acetylcholine receptor M2 (Homo sapiens, UniProt P08172); test: Displacement of [3H]N-methylscopolamine from human muscarinic M2 receptor expressed in CHO cells after 120 mins by scintillation counting; format: cell-based
[6] = molecular target: Muscarinic acetylcholine receptor M4 (Homo sapiens, UniProt P08173); test: Displacement of [3H]N-methylscopolamine from human muscarinic M4 receptor expressed in CHO cells after 120 mins by scintillation counting; format: cell-based
[7] = Antagonist activity at muscarinic M4 receptor in guinea pig lung strips assessed as dissociation constant after 45 mins; format: functional, Cavia porcellus
In short: as §1

SMILES | Ki [1] [nM] | Ki [2] [µM] | pKb [3] | Ki [4] [µM] | Ki [5] [µM] | Ki [6] [nM] | pKb [7]
C[N+](C)(C)C[C@@H]1COC[C@H](c2ccccc2)O1.[I-] (relative stereo) | 6760 | 9.77 | 5.2 | 10.2 | 6.46 |  | 
CN(C)C[C@H]1COCC(c2ccccc2)(c2ccccc2)O1.O=C(O)C(=O)O | 1.26 | 0.00151 | 8.34 |  |  | 2.34 | 
CC[C@H]1COC[C@@H](C[N+](C)(C)C)O1.[I-] (relative stereo) | 15500 | 17.8 |  |  |  |  | 
C[N+](C)(C)C[C@H]1COCC(c2ccccc2)(c2ccccc2)O1.[I-] | 0.501 | 0.00148 |  |  |  | 1.48 | 
C[N+](C)(C)CC1COCC(c2ccccc2)(c2ccccc2)O1.[I-] (racemic) | 0.794 | 0.00363 |  |  |  | 2.63 | 
CN(C)CC1COCC(c2ccccc2)(c2ccccc2)O1.O=C(O)C(=O)O (racemic) | 4.57 | 0.00219 |  |  |  | 4.9 | 
CC[C@@H]1COC[C@@H](C[N+](C)(C)C)O1.[I-] (relative stereo) | > 100000 | 81.3 |  |  |  |  | 
CN(C)C[C@@H]1COCC(c2ccccc2)(c2ccccc2)O1.O=C(O)C(=O)O | 35.5 | 0.0724 | 7.45 |  |  | 70.8 | 7.24
C[N+](C)(C)C[C@@H]1COC[C@H](C(c2ccccc2)c2ccccc2)O1 (relative stereo) | 3800 | 8.91 |  |  |  |  | 
C[N+](C)(C)C[C@@H]1COC[C@@H](C(c2ccccc2)c2ccccc2)O1 (relative stereo) | 15800 | 21.4 |  |  |  |  | 
C[N+](C)(C)C[C@@H]1COC[C@@H](c2ccccc2)O1.[I-] (relative stereo) | 26300 | 31.6 |  | 33.1 | 39.8 |  | 
C[N+](C)(C)C[C@@H]1COCC(c2ccccc2)(c2ccccc2)O1.[I-] | 16.2 | 0.0617 | 7.22 |  |  | 151 | 
